Measurements published in patent publication US7288567B2, “Inhibitors of histone deacetylase” (Methylgene Inc., priority 2000, dated 2007).

The chains behind the UniProt entries cited, without tags or fusion partners.
UniProt Q13547, whole entry: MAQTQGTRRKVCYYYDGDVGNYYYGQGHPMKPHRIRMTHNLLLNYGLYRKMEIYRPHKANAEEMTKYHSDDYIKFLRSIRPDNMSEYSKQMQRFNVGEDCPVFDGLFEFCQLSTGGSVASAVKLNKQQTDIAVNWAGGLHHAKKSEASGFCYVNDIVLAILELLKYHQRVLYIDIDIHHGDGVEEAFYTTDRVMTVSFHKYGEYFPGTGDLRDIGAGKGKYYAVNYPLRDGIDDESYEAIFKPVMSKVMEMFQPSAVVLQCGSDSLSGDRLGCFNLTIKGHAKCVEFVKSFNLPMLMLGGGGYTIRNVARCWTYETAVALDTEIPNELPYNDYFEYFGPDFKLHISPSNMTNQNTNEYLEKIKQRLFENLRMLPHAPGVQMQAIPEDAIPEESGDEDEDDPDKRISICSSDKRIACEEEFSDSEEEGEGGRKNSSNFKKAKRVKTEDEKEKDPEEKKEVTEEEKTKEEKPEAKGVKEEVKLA

Biological target: T1, recombinant human HDAC-1 enzyme (rHDAC-1) (Homo sapiens, UniProt Q13547)
T1 construct: made in house; host or cells: Baculovirus insect cell expression system
Experiment: Histone deacetylase inhibition, recombinant human HDAC-1
Assay type: biochemical
Settings: cloned recombinant human HDAC-1, Baculovirus insect cell expression; read-out: rHDAC-1 IC50

Row | IC50 [µM] | SMILES
1 | 11.6 | Nc1ccccc1NC(=O)CCCCCn1cnc2ccccc2c1=O [Compound 239a, N-(2-Aminophenyl)-6-[3-(4-oxo-4H-quinazolinyl)]hexanamide]
2 | 0.7 | Nc1ccccc1NC(=O)CCCCCN1C(=O)c2cccc3cc(O)cc(c23)C1=O [Compound 251a, N-(2-Aminophenyl)-6-[2-(5-hydroxy-1,3-dioxo-1H,3H-benzo[de]isoquinolinyl)]hexanamide]
